{
  "sequences": {"note": "Sequences of proteins named here, by UniProt entry; tags and fusion partners are left off. A change or cut given only in a name is not applied to a line headed by its entry.", "UniProt Q99P50": "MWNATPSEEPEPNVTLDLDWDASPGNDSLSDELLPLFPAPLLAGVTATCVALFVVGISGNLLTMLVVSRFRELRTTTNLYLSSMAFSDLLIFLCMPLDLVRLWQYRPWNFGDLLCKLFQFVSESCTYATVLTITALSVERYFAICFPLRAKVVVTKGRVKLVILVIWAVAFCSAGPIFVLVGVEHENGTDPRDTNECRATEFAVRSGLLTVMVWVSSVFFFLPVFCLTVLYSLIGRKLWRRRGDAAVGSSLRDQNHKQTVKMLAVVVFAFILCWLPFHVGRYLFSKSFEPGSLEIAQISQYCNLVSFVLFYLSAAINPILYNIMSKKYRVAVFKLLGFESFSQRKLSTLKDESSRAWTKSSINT"},
  "source": "patent US20220370471A1",
  "about": "“COMPOSITION AND METHOD FOR TREATMENT OF HIPPOCAMPAL SYNAPSE DYSFUNCTION AND COGNITIVE DEFICITS IN ALZHEIMER'S DISEASE” (BOARD OF REGENTS, THE UNIVERSITY OF TEXAS SYSTEM, priority 2019, published 2022)",
  "biological_target": "T1, Ghsr1α (Mus musculus, UniProt Q99P50, INS247CCPGCC)",
  "T1 construct": "Mouse full length Ghsr1α cDNA (NCBI Gene ID: 208188) was purchased from OriGene (MR226073); expressed in transfected cells; host or cells: HEK 293T",
  "test": "FlAsH-based FRET assay of Ghsr1α activity in HEK 293T cells",
  "format": "cell-based",
  "details": "JMV2959 50 μM against MK0677 50 μM",
  "excerpt": "The interaction with Aβ induces GHSR1α dysfunction. To determine whether s interaction affects the function of Ghsr1α, the inventor examined Ghsr1α activity in Aβ-enriched environments by using fluorescein arsenical hairpin binder (FlAsH)-based fluorescence resonance energy transfer (FRET) assay, which is advantageous for GPCR activity assay because of its minimally-perturbing effect on GPCR function (18). FlAsH-based FRET was created by structural dynamics of Ghsr1α with FlAsH in the intercellular loop 3 and enhanced cyan fluorescent protein (ECFP) in the C-terminus (Ghsr1α^FlAsH/ECFP). Ghsr1α^FlAsH/ECFP was expressed in HEK 293T cells and changes in FRET ratio (FFlAsH/FECFP) was monitored for the measurement of agonist-induced Ghsr1α activation. […] Ghsr1α antagonist, JMV2959 (50 μM) diminished MK0677-mediated FRET ratio decrease (FIG. 2a). […] Oligomeric Aβ42 at indicated concentrations was applied on Ghsr1α^FlAsH/ECFP-expressing HEK 293T cells for 5 minutes (pre-incubation) followed by co-incubation with vehicle or Ghsr1α agonist MK0677. […]\nFlAsH-based FRET. […] Fluorescence signals were monitored on microplate reader (BioTek Cytation 5) before and after the treatments. […] Area scanning read mode was used to correct artificial inaccuracies. The FRET ratio (FFlAsH/FECFP) was calculated according to equation as previously reported (69): […]",
  "data": [
    {"substance": "JMV2959", "values": [
      {"measurement": "effect on MK0677-mediated FRET ratio decrease", "result": "diminished"}
    ]}
  ]
}
